Patent US8716192B2, “Micro RNAs for identification of exposure to lower aliphatic saturated aldehydes and the method of identification using thereof” (Korea Institute of Science and Technology, priority 2012, dated 2014)

Legend:
[1] = system: hsa-miR-590-5p (MIMAT0003258); experiment: Micro RNA microarray, change of hsa-miR-590-5p expression; format: cell-based, human
[2] = system: hsa-miR-28-5p (MIMAT0000085); experiment: Micro RNA microarray, change of hsa-miR-28-5p expression; format: cell-based, human; conditions: A549, treated at IC20 for 48 hours, versus control

With `CCC=O` [propionaldehyde] the “Change (Fold) hsa-miR-590-5p” value ([1]; A549, treated at IC20 for 48 hours, microarray, versus control) was 1.229 Fold, the “expression level of hsa-miR-590-5p compared to the normal control group” value ([1]; result in words) was “up-regulated” and the “Change (Fold) hsa-miR-28-5p” value [2] was 1.743 Fold.
